Assay results from PubChem BioAssay AID602393 (Broad Institute, 2012).
The entries are a selection whose mix differs from that of the whole data set. Some results for these compounds are left out of this collection, so the calls shown say nothing about other tests. Activity calls are given as the source filed them. Rule as the data show it: active = activation above about 40%; inconclusive = no clear call, values can overlap the other calls; inactive = below that.

assay: Bmi1 luciferase reporter increase in mESCs, primary screen, esBAF inhibitor project, mouse ES cells, Bmi1 luciferase knock-in, single point (AID 602393); settings: 24 h, at 12.5 µM, active compounds read high, 100% = twice the neutral-well signal;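 also: 0% = median of the plate's neutral control wells and 100% = double that signal; a rise in the Bmi1 reporter signal indicates esBAF inhibition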

SMILES	reporter increase
CN(C)c1ccc(C(=O)NCC2(N(C)C)CCCCC2)cc1	inactive: 11.1%
COc1ccc(C(=O)NCC2(N(C)C)CCCCC2)cc1	inactive: -2.44%
Cc1cc(C(=O)NCC2(N3CCCCC3)CCCCC2)ccc1[N+](=O)[O-]	inactive: 0.541%
O=C(NCC1(N2CCCCC2)CCCCC1)c1cccc(Br)c1	inactive: -6.49%
O=C(NCC1(N2CCCCC2)CCCCC1)c1cc(F)c(F)cc1Cl	inactive: -2.06%
CN1[C@@H]2CC[C@H]1CC(OC(=O)C(O)(c1ccccc1)c1ccccc1)C2 (some centres undefined)	inactive: -3.45%
Cc1ccc(C(=O)NCC2(N3CCCCC3)CCCCC2)cc1	inactive: -8.71%
COc1cc(SC)ccc1C(=O)NCC1(N(C)C)CCCCC1	inactive: 1.28%
CC(C)N1C(=O)CC2(CCN(CCOC(=O)C(O)(c3ccccc3)c3ccccc3)CC2)C1=O	inactive: -0.972%
O=C(OC1CN2CCC1CC2)C(CO)(c1ccccc1)c1ccccc1 (centres undefined)	inactive: -3.48%
CC(C)Oc1ccc(C(=O)NCC2(N(C)C)CCCCC2)cc1	inactive: -4.62%
O=C(OCCN1CCCC1)C(O)(c1ccccc1)c1ccccc1	inactive: 4.83%
CN(C)c1cccc(C(=O)NCC2(N(C)C)CCCCC2)c1	inactive: 28.5%
C=C(C)C#CC(O)(C(=O)OC1CCN(C)CC1)c1ccccc1 (centres undefined)	inactive: 2.63%
COc1ccc(Br)c(C(=O)NCC2(N3CCCCC3)CCCCC2)c1	inactive: -8.08%
COc1cc(C(=O)NCC2(N(C)C)CCCCC2)c([N+](=O)[O-])cc1OC	inactive: 3.94%
CN(C)C1(CNC(=O)c2ccc(Br)cc2)CCCCC1	inactive: 3.63%
O=C(NCC1(N2CCCCC2)CCCCC1)c1cccc(Cl)c1	inactive: -6.1%
COc1ccc(Cl)cc1C(=O)NCC1(N(C)C)CCCCC1	inactive: 5.48%
